Source: patent US8470814B2, “Diazepinedione derivative” (Nippon Chemiphar Co., Ltd., priority 2009, dated 2013)
Structures can show the parent of a compound that is named as a salt.

Biological target: T1, human P2X4 receptors (Homo sapiens, UniProt Q99571)
T1 construct: expressed in transfected cells
T1 sequence (Q99571 1-388): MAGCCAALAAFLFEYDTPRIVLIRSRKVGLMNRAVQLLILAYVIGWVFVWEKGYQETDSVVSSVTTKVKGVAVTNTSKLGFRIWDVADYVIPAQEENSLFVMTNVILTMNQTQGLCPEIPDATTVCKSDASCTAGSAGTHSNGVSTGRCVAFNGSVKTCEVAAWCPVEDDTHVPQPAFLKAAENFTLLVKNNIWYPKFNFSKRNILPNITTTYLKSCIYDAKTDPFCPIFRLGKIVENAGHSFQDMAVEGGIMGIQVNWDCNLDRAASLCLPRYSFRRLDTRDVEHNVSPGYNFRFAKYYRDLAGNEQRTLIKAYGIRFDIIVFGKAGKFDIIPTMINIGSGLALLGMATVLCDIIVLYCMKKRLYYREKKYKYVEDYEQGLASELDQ
Experiment: calcium influx assay (Fura-2, ATP-induced Ca2+ response) for P2X4 receptor antagonism
Type: cell-based
Details: 1321N1 cells stably expressing human P2X4 receptors; 1 μM ATP; compound treated 15 min before ATP; fluorescence ratio F340/F380
Protocol: 1321N1 cells stably expressing human P2X4 receptors were adopted for calcium influx assay. P2X4/1321N1 cells were plated in 96-well assay plate and cultured 24 hours in an atmosphere of 5% CO2 at 37° C. Fura-2 AM calcium indicator dissolved in an extracellular solution for calcium imaging was loaded onto cells for 45 minutes at room temperature. The fluorescence was detected by FLUOstar Optima micro plate reader (BMG labtech). The cells were alternatively illuminated with two excitations wavelengths (340 nm and 380 nm) via xenon lamp and the emitted fluorescence was measured at 510 nm. The fluorescence changes after the treatment of 1 μM ATP were monitored and determined the fluorescence ratio (F340/F380) as the index of intracellular calcium change. Tested compounds were treated to cells 15 min before the addition of ATP and the inhibition activities of compounds were calculated by comparing the Ca^2+ response with control in the absence of tested compound.
P2X4 receptor antagonism of the compound of the present invention was measured as described below.
1321N1 cells stably expressing human P2X4 receptors were adopted for calcium influx assay. […] The fluorescence was detected by FLUOstar Optima micro plate reader (BMG labtech). The cells were alternatively illuminated with two excitations wavelengths (340 nm and 380 nm) via xenon lamp and the emitted fluorescence was measured at 510 nm. […]

Question: Which IC50 does the source give for `O=C1CC(=O)N(c2cccc(-c3nnn[nH]3)c2)c2ccc3ccccc3c2N1` [Example 2, 5-[3-(1H-Tetrazol-5-yl)phenyl]-1H-naphtho[1,2-b][1,4]diazepin-2,4(3H,5H)-dione potassium salt] here?
Answer: Its IC50 is 380 nM.
